The record followed here is patent US11497722B2, “Use of metformin salt in the treatment of cerebral infarction” (dated 2022).

The experiment relates to p-AMPK protein. Kind of experiment: Activation of p-AMPK protein (Western blot). As to conditions: HEK293T, 0.5 mM and 2 mM, 6 hrs. (In general: Immunoblotting shows a protein as a band on a membrane.)

Consider Metformin Citrate, for which the “Activation of p-AMPK protein (expression level, Western blot)” value is reported as “more pronounced effect on p-AMPK activation”.
